CycPeptMPDB entries from one study

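Conditions beyond the assay type are not listed; see the original paper. Other peptides of the study may be missing here. Entries at the database's floor value (log10 P of -10) are not listed.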

PAMPA measures passive passage through an artificial lipid membrane. Permeability is given as log10 of P in cm/s; higher (less negative) is more permeable.

PAMPA (log10 cm/s)	SMILES
-6.17	C[C@H]1NC(=O)[C@H](Cc2ccccc2)NC(=O)CN(Cc2ccccc2)C(=O)[C@H]2CCCN2C(=O)CN(Cc2ccccc2)C(=O)CN(Cc2ccccc2)C1=O
-5.80	CC(C)C[C@@H]1C(=O)N[C@@H](Cc2ccccc2)CC(=O)N2CCC[C@H]2C(=O)N(Cc2ccccc2)CC(=O)N[C@@H](Cc2ccccc2)C(=O)N2CCC[C@H]2C(=O)N[C@@H](C)C(=O)N1C
-4.92	CCCN1CC(=O)N[C@H](CC(C)C)C(=O)N(C)[C@@H](CC(C)C)C(=O)N2CCC[C@H]2C(=O)N(C)[C@H](CC(C)C)C(=O)N[C@@H](Cc2ccccc2)C1=O
-6.20	CC(C)C[C@@H]1NC(=O)[C@@H]2CCCN2C(=O)C[C@H](Cc2ccccc2)NC(=O)CN(Cc2ccccc2)C(=O)[C@H](C)N(C)C(=O)[C@H]2CCCN2C(=O)[C@H](Cc2ccccc2)NC1=O
-5.07	CC(C)C[C@H]1C(=O)N2CCC[C@@H]2C(=O)N(C)[C@@H](CC(C)C)C(=O)N[C@@H](Cc2ccccc2)C(=O)N2CCC[C@@H]2C(=O)N[C@@H](C)C(=O)N(Cc2ccccc2)CC(=O)N1C
-6.03	CC(C)C[C@@H]1NC(=O)[C@H]2CCCN2C(=O)CN(Cc2ccccc2)C(=O)CN(Cc2ccccc2)C(=O)C[C@H](Cc2ccccc2)NC(=O)[C@@H]2CCCN2C(=O)[C@H](Cc2ccccc2)NC1=O
-5.85	CCCN1CC(=O)N(Cc2ccccc2)CC(=O)N[C@@H](Cc2ccccc2)CC(=O)N2CCC[C@H]2C(=O)N[C@H](CC(C)C)C(=O)N[C@@H](Cc2ccccc2)C1=O
-5.37	CCCN1CC(=O)N(C)[C@H](CC(C)C)C(=O)N[C@@H](CC(C)C)C(=O)N2CCC[C@@H]2C(=O)N(Cc2ccccc2)CC(=O)N[C@@H](Cc2ccccc2)C1=O
-6.23	CCCN1CC(=O)N(C)[C@H](CC(C)C)C(=O)N(Cc2ccccc2)CC(=O)N2CCC[C@H]2C(=O)N[C@H](CC(C)C)C(=O)N[C@@H](Cc2ccccc2)C1=O
-7.24	CC(C)C[C@@H]1NC(=O)[C@H]2CCCN2C(=O)C[C@H](Cc2ccccc2)NC(=O)CN(Cc2ccccc2)C(=O)[C@@H](C)NC(=O)[C@H]2CCCN2C(=O)[C@H](Cc2ccccc2)NC1=O
-6.06	C[C@H]1NC(=O)[C@H](Cc2ccccc2)NC(=O)CN(Cc2ccccc2)C(=O)[C@@H]2CCCN2C(=O)CN(Cc2ccccc2)C(=O)CN(Cc2ccccc2)C1=O
-6.12	CCCN1CC(=O)N(Cc2ccccc2)CC(=O)N[C@@H](Cc2ccccc2)CC(=O)N2CCC[C@H]2C(=O)N[C@H](CC(C)C)C(=O)N[C@@H](Cc2ccccc2)C(=O)N2CCC[C@@H]2C1=O
-5.10	CC(C)C[C@H]1C(=O)N2CCC[C@@H]2C(=O)N(C)[C@@H](CC(C)C)C(=O)N[C@@H](Cc2ccccc2)C(=O)N(C)[C@@H](C)C(=O)N(Cc2ccccc2)CC(=O)N1C
-6.02	CC(C)C[C@@H]1NC(=O)[C@@H]2CCCN2C(=O)C[C@H](Cc2ccccc2)NC(=O)CN(Cc2ccccc2)C(=O)C[C@H](Cc2ccccc2)NC(=O)[C@H](Cc2ccccc2)NC1=O
-6.07	CC(C)C[C@@H]1NC(=O)[C@@H]2CCCN2C(=O)C[C@H](Cc2ccccc2)NC(=O)CN(Cc2ccccc2)C(=O)[C@@H](C)NC(=O)[C@H](Cc2ccccc2)NC1=O
-6.42	C[C@@H]1C(=O)N(Cc2ccccc2)CC(=O)N[C@@H](Cc2ccccc2)CC(=O)N2CCC[C@H]2C(=O)N(Cc2ccccc2)CC(=O)N[C@@H](Cc2ccccc2)C(=O)N2CCC[C@H]2C(=O)N1C
-6.02	CC(C)C[C@H]1NC(=O)C[C@H](Cc2ccccc2)NC(=O)[C@H](Cc2ccccc2)NC(=O)CN(Cc2ccccc2)C(=O)[C@@H]2CCCN2C(=O)CN(Cc2ccccc2)C1=O
-5.75	CCCN1CC(=O)N(C)[C@H](CC(C)C)C(=O)N[C@@H](Cc2ccccc2)CC(=O)N2CCC[C@H]2C(=O)N(Cc2ccccc2)CC(=O)N[C@@H](Cc2ccccc2)C(=O)N2CCC[C@H]2C1=O
-6.23	CC(C)C[C@H]1NC(=O)[C@H](C)NC(=O)[C@H]2CCCN2C(=O)[C@H](Cc2ccccc2)NC(=O)CN(Cc2ccccc2)C(=O)[C@@H]2CCCN2C(=O)C[C@H](Cc2ccccc2)NC1=O
-5.99	CC(C)C[C@H]1NC(=O)C[C@H](Cc2ccccc2)NC(=O)[C@H]2CCCN2C(=O)[C@H](Cc2ccccc2)NC(=O)CN(Cc2ccccc2)C(=O)[C@@H]2CCCN2C(=O)C[C@H](Cc2ccccc2)NC1=O
-6.94	CC(C)C[C@H]1C(=O)N(Cc2ccccc2)CC(=O)N2CCC[C@@H]2C(=O)N(Cc2ccccc2)CC(=O)N[C@@H](Cc2ccccc2)C(=O)N2CCC[C@@H]2C(=O)N[C@H](C)C(=O)N1C
-6.11	CC(C)C[C@@H]1NC(=O)[C@@H]2CCCN2C(=O)C[C@H](Cc2ccccc2)NC(=O)CN(Cc2ccccc2)C(=O)[C@H](C)N(C)C(=O)[C@H](Cc2ccccc2)NC1=O
-5.81	CC(C)C[C@@H]1C(=O)N(Cc2ccccc2)CC(=O)N2CCC[C@H]2C(=O)N[C@H](CC(C)C)C(=O)N[C@@H](Cc2ccccc2)C(=O)N[C@@H](Cc2ccccc2)CC(=O)N1C

Repeated from above, the 3 entries with the highest PAMPA:

SMILES	PAMPA (log10 cm/s)
CCCN1CC(=O)N[C@H](CC(C)C)C(=O)N(C)[C@@H](CC(C)C)C(=O)N2CCC[C@H]2C(=O)N(C)[C@H](CC(C)C)C(=O)N[C@@H](Cc2ccccc2)C1=O	-4.92
CC(C)C[C@H]1C(=O)N2CCC[C@@H]2C(=O)N(C)[C@@H](CC(C)C)C(=O)N[C@@H](Cc2ccccc2)C(=O)N2CCC[C@@H]2C(=O)N[C@@H](C)C(=O)N(Cc2ccccc2)CC(=O)N1C	-5.07
CC(C)C[C@H]1C(=O)N2CCC[C@@H]2C(=O)N(C)[C@@H](CC(C)C)C(=O)N[C@@H](Cc2ccccc2)C(=O)N(C)[C@@H](C)C(=O)N(Cc2ccccc2)CC(=O)N1C	-5.10

Data: CycPeptMPDB; original report Townsend et al. 2020, doi:10.26434/chemrxiv.13335941.v1.